{
  "source": "PubChem BioAssay AID827",
  "about": "(SRMLSC, 2007)",
  "note": "The entries are a selection whose mix differs from that of the whole data set. Some tests of the compounds listed are not included; inactive here does not mean inactive elsewhere. The source made the active and inactive calls.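 Rule for the calls: active = viability at or below a set limit, 4 SD under the median of all tested compounds (cut at about 3.7% in these data); inactive = the rest.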",
  "data": [
    {"assay": "viability loss in PTEN-deleted colon tumor cells – cell-based, HCT116, CellTiter-Glo, primary screen (AID 827);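 note: PTEN knockout HCT116 line with beta catenin targeted HCT116 as companion control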", "conditions": "HCT116 PTEN-null viability, 60 h, at 10 µM, hits give low values", "values": [
      {"smiles": "CC(C)N1C(=O)CC2(CCN(CCOC(=O)C(O)(c3ccccc3)c3ccccc3)CC2)C1=O", "viability": "inactive: 85%"},
      {"smiles": "CN(C)C1CCCC1OC(=O)C(O)(c1ccccc1)c1ccccc1", "note": "(stereo not given)", "viability": "inactive: 94.8%"},
      {"smiles": "CCN1CCCC(OC(=O)C2(O)c3ccccc3C=Cc3ccccc32)C1", "note": "(stereo not given)", "viability": "inactive: 94%"},
      {"smiles": "O=C(OC1CN2CCC1CC2)C(CO)(c1ccccc1)c1ccccc1", "note": "(stereo not given)", "viability": "inactive: 103%"},
      {"smiles": "CN(C)c1cccc(C(=O)NCC2(N(C)C)CCCCC2)c1", "viability": "inactive: 82.7%"}
    ]}
  ]
}
